According to patent US20040092531A1:

Tested on: neuropathic pain (allodynia against cold) in male Sprague-Dawley rats
Experiment: Bennett test on rats (cold allodynia on 4° C. metal plate)
Conditions: intravenous, FIG. 1

Compound: CNC1(c2ccccc2Cl)CCCCC1=O (centres unmarked)
- analgesic effect 1440 minutes, i.e. 24 hours after administration (ketamine 4.64 mg/kg and/or fentanyl 0.01 mg/kg): no longer exhibit any analgesic effect
- analgesic effect about 15 minutes after administration (ketamine 4.64 mg/kg, fentanyl 0.01 mg/kg): good analgesic effect
